Reference: patent US20040023978A1, “Active salt forms with tyrosine kinase activity” (priority 2002, published 2004)

Tests used:
[1] = Stability of the crystal form (XRPD, hot-stage XRPD)
[2] = Hygroscopicity, step isotherm at 25° C.; format: physicochemical
[3] = Solubility at room temperature (HPLC isocratic method); format: physicochemical

CNC(=O)N1CCN(Cc2ccnc(Nc3ncc(C#N)s3)c2)CC1.CS(=O)(=O)O [mesylate salt (Form A), 1-({2-[(5-cyano-1,3-thiazol-2-yl)amino]pyridin-4-yl}methyl)-4-[(methylamino)carbonyl]piperazin-1-ium methanesulfonate]
crystal form on heating (hot-stage XRPD) ([1]; 100° C.): retained the initial form
crystal form on heating (hot-stage XRPD) ([1]; 175° C.): changed to a different form (Form B)
initial crystal form on suspension in water ([1]; suspended in water for 3 weeks): retained
hygroscopicity [2]: slightly hygroscopic
moisture pick-up ([2]; 80%RH): about 4%
Native pH in water ([3]; value after 7 days): ^2Native pH in water is 2.54 (value after 7 days).
pH of the resulting aqueous solution ([3]; water (text b274)): 1.8
